## Ab-14 heavy chain CDR variants: yeast mating affinities

Data: MIT Lincoln Laboratory AlphaSeq set, Engelhart et al. 2022, doi:10.1038/s41597-022-01779-4, as distributed in FLAb.

Antigen: PDVDLGDISGINAS, a 14-residue peptide of the SARS-CoV-2 spike HR2 region.

The variants keep the light chain, the linker and the frameworks of Ab-14 (scFv order VH, a (GGGGS)3 linker, VL).
VH: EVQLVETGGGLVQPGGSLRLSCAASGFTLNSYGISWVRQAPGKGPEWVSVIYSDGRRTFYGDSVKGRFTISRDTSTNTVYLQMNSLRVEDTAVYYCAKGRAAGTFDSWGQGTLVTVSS
VL: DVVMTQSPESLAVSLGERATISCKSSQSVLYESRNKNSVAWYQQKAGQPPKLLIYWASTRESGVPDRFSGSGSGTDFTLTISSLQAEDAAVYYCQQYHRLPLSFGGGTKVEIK

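Phage display of a naive human antibody library on the peptide gave the parent. Library AAYL49 holds single substitutions and randomly drawn double and triple substitutions in the CDRs. The assay is AlphaSeq: two haploid yeast populations carry antibody and antigen on their surface. Pairs that bind mate more often; barcode pairs of the diploids are counted by sequencing. Read counts were normalised to the haploid input and turned into Kd by a linear fit to BCL2-family pairs of known affinity, for each replicate. There are three technical replicates.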

Positions count from residue 1 of the parent VH; N30W puts W in place of N. Values are log10 of the apparent Kd in nM; lower means stronger binding. A pair that was not seen in that replicate is written "n.d."; this usually means weak binding, but a binder can also be missed. Empty control strains, which show no peptide, gave a signal in 15% of pairings with library AAYL49; the median was 4.06 and 95% of these signals were weaker than 2.83. No background was subtracted. The control count says in how many pairings with the empty strains this scFv gave a signal, with their mean in brackets. Parent in this assay: reference entry 0.65, copy in this library 4.11 (one replicate of three).

log10 Kd (nM) by replicate | empty controls | changes
n.d. / n.d. / 4.21 | 3 of 9 (4.16) | N30W+G33C+S53Q
0.31 / 0.67 / 0.50 | 0 of 9 | F27T+T28D
n.d. / n.d. / n.d. | 1 of 9 (3.39) | S31N+S63G
n.d. / n.d. / n.d. | 0 of 9 | G33E+F59N+S63E
3.91 / 3.68 / 2.52 | 1 of 9 (4.30) | F59C+A101F+S107T
n.d. / n.d. / 3.12 | 1 of 9 (3.46) | S53I+F105R+D106W
n.d. / n.d. / n.d. | 0 of 9 | V50H+G99C
3.37 / n.d. / n.d. | 0 of 9 | F59I+S63R+F105A
n.d. / 5.33 / n.d. | 3 of 9 (4.44) | Y32Q+A102Y+F105G
n.d. / 2.29 / 2.74 | 2 of 9 (2.92) | G26K+F27W+S31K
n.d. / n.d. / n.d. | 2 of 9 (3.81) | G26Y+T28R+G103Q
4.59 / 4.75 / 4.75 | 7 of 9 (5.36) | I34S+D54C+R57V
5.40 / n.d. / n.d. | 3 of 9 (4.15) | F27Q+G55R+G61F
4.52 / 5.09 / n.d. | 3 of 9 (4.45) | I34E+I51Y+D62C
1.72 / 1.86 / 1.56 | 2 of 9 (4.04) | R56H+K65W+G99C
n.d. / n.d. / 5.06 | 1 of 9 (3.59) | R57Y+T58S+S63W
n.d. / n.d. / n.d. | 0 of 9 | S53I+D54G+R100M
4.50 / 2.92 / n.d. | 0 of 9 | I51V+K65M+D106P
n.d. / n.d. / 3.36 | 0 of 9 | D54W+S63V
n.d. / n.d. / n.d. | 0 of 9 | S35F+F59Y+G99A
n.d. / n.d. / n.d. | 2 of 9 (4.00) | L29S+R100G+G103C
n.d. / n.d. / n.d. | 1 of 9 (4.17) | R100T+D106Y
n.d. / n.d. / n.d. | 1 of 9 (4.71) | G33P+G99Q+R100I
n.d. / n.d. / n.d. | 1 of 9 (2.11) | N30H+G55T+S63E
n.d. / n.d. / n.d. | 0 of 9 | S31P+Y60W
2.40 / 2.55 / 2.00 | 3 of 9 (4.23) | S31V+G61C+D106A
n.d. / n.d. / 4.48 | 1 of 9 (2.44) | T28N+F59P+S63L
n.d. / n.d. / n.d. | 1 of 9 (3.61) | G55D+R56E+R100A
2.30 / 1.75 / 2.22 | 2 of 9 (5.03) | F27E+R56W+S63D
2.27 / 2.08 / 2.53 | 0 of 9 | S53H+D106H
2.74 / 3.00 / 3.53 | 8 of 9 (4.06) | V50C+D62G+A101I
n.d. / n.d. / n.d. | 1 of 9 (4.23) | T58E+V64T+G99M
n.d. / n.d. / n.d. | 2 of 9 (3.73) | V64I+A101W+F105K
3.54 / n.d. / 3.39 | 0 of 9 | T28H+N30F+A102L
5.26 / 5.30 / 4.17 | 3 of 9 (4.68) | L29C+N30S+I34E
3.11 / 3.60 / 3.35 | 3 of 9 (3.96) | G26C+D62S+A101Y
n.d. / 3.34 / n.d. | 0 of 9 | Y32G+D106C
4.00 / 4.13 / n.d. | 4 of 9 (4.08) | L29P+G33E+G103V
0.48 / 0.75 / 0.63 | 3 of 9 (4.29) | G61I+G99I+T104P
0.67 / 0.96 / 0.93 | 0 of 9 | T28G+G61V+R100V
n.d. / n.d. / n.d. | 1 of 9 (3.43) | G33M+V64N+K65A
2.39 / 3.08 / 3.44 | 2 of 9 (3.37) | N30M+S31R+I51A
n.d. / n.d. / n.d. | 0 of 9 | T28K+G55D+A101R
4.34 / 2.92 / 4.63 | 1 of 9 (3.87) | N30P+D54R+A102F
n.d. / n.d. / n.d. | 1 of 9 (2.38) | G26F+V50M+I51P
n.d. / n.d. / n.d. | 2 of 9 (4.88) | F27G+Y52C+R57V
n.d. / n.d. / n.d. | 1 of 9 (2.94) | S35N+T58Q+S63C
n.d. / n.d. / n.d. | 0 of 9 | Y52S+V64K+G99C
n.d. / n.d. / n.d. | 1 of 9 (2.68) | S63Y+V64L+D106K
4.52 / 3.86 / n.d. | 3 of 9 (3.74) | G61N+G99A+R100Q

For reference, 5 entries of the list once more:

changes | log10 Kd (nM) by replicate | empty controls
S53I+D54G+R100M | n.d. / n.d. / n.d. | 0 of 9
I34E+I51Y+D62C | 4.52 / 5.09 / n.d. | 3 of 9 (4.45)
S53H+D106H | 2.27 / 2.08 / 2.53 | 0 of 9
D54W+S63V | n.d. / n.d. / 3.36 | 0 of 9
N30W+G33C+S53Q | n.d. / n.d. / 4.21 | 3 of 9 (4.16)